Compound activity (PubChem)
Nrf2 ARE act = activators of Nrf2 (ARE) signaling | AREc32 ARE-luciferase reporter (MCF7-derived line), luminescence, 24 h | Potency, µM (doses to about 46.1 µM), for the others: at the top dose activation, usual class: activators | hit rate 0.31% among 410,000; also: potency is read from the fitted curve at half-maximal effect; % of control where 0% means no effect; nearly all actives have a fitted effect of over 65% in size
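Each well held 1000 AREc32 cells, which were incubated with compound for 24 hr at 37 deg C after overnight attachment, and ARE reporter activity was quantified by firefly luciferase luminescence.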
GALK inhibitor = galactokinase (human) inhibition; Purified GALK, Kinase-Glo residual ATP luminescence; Potency, µM (titrated, usually from 57.5 µM), inactives show top-dose activity change, negative = inhibition, actives largely listed as inhibitors; hit rate 0.007% among 270,000; also: potency is read from the fitted curve at half-maximal effect; % is scaled to controls: 0 for no effect and ±100 for the full control effect
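5 nM enzyme, 35 uM ATP, 100 uM galactose, 20 mM HEPES pH8.0, 5 mM MgCl2; 1 h RT; residual ATP by Kinase-Glo Plus luminescence, qHTS format.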
PI4K2A block = inhibitors of human PI4K2A. purified PI4K2A, ADP-Glo luminescence, 1 h; stronger effect = lower value. activity change, negative = inhibition, % at 76.9 µM. hit rate 0.13% among 420,000. AID 1346378; in the data active = activity change below about -50%; inconclusive = mostly about -30% to -49%;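 also: -100% = wells without enzyme as full effect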
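PI4K2A activity was measured by ADP-Glo luminescence: enzyme (4 ug/mL stock) and phosphatidylinositol (1.2 mM stock) in Tris pH 7.5/MgCl2/EGTA/Triton X-100 buffer were reacted with ATP (300 microM stock) for one hour at ambient temperature.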
miR-21 reporter = raises the signal of a miR-21 reporter | HeLa miR-21 FLuc reporter, luciferase, 48 h | Potency, µM (doses to about 38.3 µM), for the others: at the highest dose reporter change, positive = more light | 340,000 tested, under 10 active | AID 2288; active = well fitted rising curve with a large enough effect; inconclusive = small, poorly fitted or top-dose-only effect; inactive = no such curve, though single readings can be large or run the other way;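 also: % of control where 0% means no effect; miR-21 action dims this reporter so a rising signal means less miR-21 action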
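HeLa miR-21-FLuc reporter line, endogenous miR-21; 2000 cells/well in DMEM/10% FBS; compound titration up to ~40uM final, 48 h, 37 degree Celsius; luciferase detection reagent, 15 min lysis, CCD luminescence.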
Nrf2 inh = blocks Nrf2 signaling | AID 504444 | Potency, µM (titrated, usually from 46 µM), inactives show at the highest dose activity change, negative = inhibition, actives largely listed as inhibitors | A549 ARE-Fluc reporter, luciferase luminescence, 18-24 h | hit rate 2.1% among 360,000; also: potency is read from the fitted curve at half-maximal effect; % is scaled to controls: 0 for no effect and ±100 for the full control effect; nearly all actives have a fitted effect of over 60% in size
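Nrf2 activity is the BugLite luminescence, read 15 min after reagent at room temperature, following CellTiter-Fluor cytotoxicity readout (30 min, 37C). Compound titrations were applied for 18-24 h to 5000 A549 ARE_Fluc cells/well in 5% FBS OPTI-MEM.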
A549 viability = counter-screen for Nrf2 inhibitors: cytotoxicity in A549 cells; hit rate 0.16% among 390,000; Potency, µM (titrated, usually from 46 µM), for inactives: at the top dose activity change, negative = cytotoxicity, hits mostly inhibitors; A549 ARE-Fluc cells, CellTiter-Fluor viability, 18-24 h; also: potency is read from the fitted curve at half-maximal effect; % is scaled to controls: 0 for no effect and ±100 for the full control effect
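A549 ARE_Fluc cells in 5% FBS OPTI-MEM were exposed to compounds in concentration-response for 18-24 h at 37 deg C. Viability was read by CellTiter-Fluor fluorescence (Ex 405/Em 525) after 30 min, before the luciferase read.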
Numbers without * were called inactive; u = inconclusive; x = no result given. This is a sample that favours compounds with a hit; in the whole collection about 2.2% have one here. Unless noted, calls follow the shape of the dose curve; as a rule, active = well fitted curve in the direction sought with a large enough effect; inconclusive = small, poorly fitted or top-dose-only effect, or another doubt; inactive = no such curve, though single readings can be large; an effect the other way counts as inactive or inconclusive.

Each structure is followed by: Nrf2 ARE act | GALK inhibitor | PI4K2A block | miR-21 reporter | Nrf2 inh | A549 viability
> CCN(CC)S(=O)(=O)c1ccc(S(=O)(=O)N2CCCC(C(=O)NC3CC3)C2)cc1 (stereo not drawn)
    0% | 0% | 1 | 1% | 5.8µM* | 1%
> CCOC(=O)C1CCCN(S(=O)(=O)c2ccc(S(=O)(=O)N(CC)CC)cc2)C1 (stereo not drawn)
    2% | 6% | -3 | 22% | u | 2%
> CN(C)S(=O)(=O)c1ccc(S(=O)(=O)N2CCCC(C(=O)NC3CC3)C2)cc1 (stereo not drawn)
    0% | -1% | -1 | 1% | 21µM* | -7%
> COC(=O)[C@]12C[C@H](CC(=O)N3CCSCC3)C(=O)N(Cc3cccc4ccccc34)C1=C[C@H](C1CCCC1)O[C@@H]2C
    x | x | 0 | x | x | x
> CC(C)(C)OC(=O)NCCCCCc1cn([C@@H](CO)C(=O)NCCCCCCCCCCC(=O)N2CCN(C(=O)OC(C)(C)C)CC2)nn1
    -3% | x | 0 | x | 7.3µM* | u
> CC(C)(C)OC(=O)CC[C@@H](C(=O)NCCCCCCCCCCC(=O)N1CCN(C(=O)OC(C)(C)C)CC1)n1cc(CCCCCNC(=O)OC(C)(C)C)nn1
    5% | x | -6 | x | u | 0%
> CCCCNC(=O)C[C@H]1C[C@@]2(C(=O)OC)C(=C[C@H](C(C)C)O[C@@H]2C2CC2)N(CCc2ccc(OC)c(OC)c2)C1=O
    x | x | -2 | x | x | x
> CCOCCCNC(=O)c1cc2c(=O)n(CC)c3ccccc3c2s1
    1% | 3% | 2 | 14% | u | 1%
> CCn1c(=O)c2cc(C(=O)NCCOC)sc2c2ccccc21
    0% | -1% | -2 | 1% | 21µM* | 4%
> Cc1cc(SCC(=O)N/N=C/c2ccc(O)cc2O)c(C)cc1Br
    1% | 0% | 0 | 26% | 15µM* | -12%

Each structure is followed by: Nrf2 ARE act | GALK inhibitor | PI4K2A block | miR-21 reporter | Nrf2 inh | A549 viability
> COC(=O)c1cc(-c2cccs2)c(=O)n2c1CCC2
    x | x | 1 | x | x | x
> Nc1ncc(-c2cccc(-c3nn4c(=O)cc(N5CCNCC5)nc4s3)c2)cn1
    x | x | x | x | 3% | -5%
> CCCCCCOc1ccc(/C(C)=N/NC2=NCCN2)cc1[N+](=O)[O-]
    -5% | -1% | -2 | -22% | 2% | -2%
> CCCCOc1ccc(Br)cc1/C(C)=N/NC1=NCCN1
    5% | -2% | -15 | u | u | 12µM*
> C/C=C(/C(=C/C)c1ccc(OC(C)=O)cc1)c1ccc(OC(C)=O)cc1
    x | x | -1 | x | x | x
> O=[N+]([O-])c1ccc(Oc2ccc(Oc3ccc(C(F)(F)F)cn3)cc2)nc1
    0% | 1% | -8 | 8% | 16µM* | 0%
> O=[N+]([O-])c1ccc(Oc2ccc(/C=N/O)cc2)nc1
    2% | 4% | 1 | -15% | -15% | -2%
> Cc1c(Br)cc(F)c([S+](=O)([O-])N2CCN([S+](=O)([O-])c3ccc4c(c3)OCCO4)CC2)c1F
    x | x | x | x | 8% | 1%
> CCOc1ccc(OCC(=O)Nc2nccs2)cc1
    1% | u | -86* | 29% | u | 2%
> Cc1ccsc1C(=O)Nc1ccc(OCc2ccccc2)cc1
    -1% | 18% | u | -66% | 2% | 0%

Each structure is followed by: Nrf2 ARE act | GALK inhibitor | PI4K2A block | miR-21 reporter | Nrf2 inh | A549 viability
> Cc1ccsc1C(=O)Nc1ccc(C(=O)O)cc1
    0% | 7% | -74* | -13% | 15% | 11%
> Cc1ccc(-c2cc(C(=O)NN=Cc3cccc(OCc4ccccc4)c3)[nH]n2)cc1C
    x | x | 4 | x | x | x
> O=C(Nc1ccc(OC(F)F)cc1)c1ncc(Cl)c(Cl)c1Cl
    7.1µM* | 0% | -1 | 11% | 1% | 6%
> COCCn1c(=NC(=O)c2ccc3c(c2)OCCO3)sc2cc(S(N)(=O)=O)ccc21
    -1% | 0% | 1 | -3% | 13µM* | -14%
> CC1=CC2(C(Cc3ccccc3)N(CC3CC3)C(=NC(=O)c3ccccc3)N2C(=O)OCc2ccccc2)n2c(=O)n(-c3ccccc3)c(=O)n2C1 (stereo not drawn)
    x | x | -7 | x | x | x
> Cc1ccc(N=C(NOCc2ccc(Cl)cc2Cl)c2nonc2N)c(C)c1
    5% | 0% | -2 | 13% | 23µM* | -9%
> CCOc1cccc(C(=O)Nc2ccc3oc(Cc4ccc(Cl)cc4)nc3c2)c1
    0% | 0% | -3 | 30% | 21µM* | u
> CCOc1cccc(C(=O)Nc2ccc3oc(-c4cccnc4)nc3c2)c1
    0% | -4% | 3 | -4% | 9.2µM* | -10%
> O=C1CCc2cc(S(=O)(=O)Nc3ccc4ncccc4c3)ccc2N1
    x | x | x | x | 0% | -10%
> Cc1ccc(NC2CNC(=O)NC2=O)cc1C (stereo not drawn)
    0% | x | 1 | x | 7% | -1%

Each structure is followed by: Nrf2 ARE act | GALK inhibitor | PI4K2A block | miR-21 reporter | Nrf2 inh | A549 viability
> Cc1ccc(NC2C(=O)NC(=O)NC2=O)cc1
    1% | x | -59* | x | -1% | 4%
> O=C1C(Cl)=C(N2CCC(C(=O)O)CC2)C(=O)c2ccccc21
    u | u | -15 | 1% | -9% | -13%
> CN1CCN(C2=C(Cl)C(=O)c3ccccc3C2=O)CC1
    -3% | x | -55* | x | u | u
> COc1ccc2c(C)c(CC(=O)N3CCN(C(=O)C4COc5ccccc5O4)CC3)c(=O)oc2c1 (stereo not drawn)
    0% | -4% | 2 | 8% | 23µM* | 13%
> S=c1[nH]nc(COc2ccccc2)n1/N=C/C=C/c1ccco1
    13µM* | 2% | -9 | 5% | 10% | 0%
> S=c1[nH]nc(COc2ccccc2)n1/N=C/C=C/c1ccccc1
    0% | -2% | -5 | -16% | 8% | -4%
> Brc1ccc(Cn2nnc(-c3ccc(N4CCOCC4)cc3)n2)cc1
    x | x | -5 | x | x | x
> Cc1ccc(/C=C(\C#N)C(=O)Nc2ccccn2)o1
    14µM* | 8% | -3 | -45% | u | -7%
> CC(=O)c1ccc(N2CCN(C(=O)Nc3ccc(F)cc3)CC2)cc1
    x | -2% | x | -8% | x | x
> CC(=O)c1ccc(N2CCN(C(=O)Nc3ccc(C(C)C)cc3)CC2)cc1
    2% | 0% | 3 | u | 7.3µM* | u

Rewritten tab-delimited: two of the compounds above
mol	Nrf2 ARE act	GALK inhibitor	PI4K2A block	miR-21 reporter	Nrf2 inh	A549 viability
CC(=O)c1ccc(N2CCN(C(=O)Nc3ccc(F)cc3)CC2)cc1	x	-2%	x	-8%	x	x
Cc1ccc(N=C(NOCc2ccc(Cl)cc2Cl)c2nonc2N)c(C)c1	5%	0%	-2	13%	23µM*	-9%

Entries of single compounds, looked up by structure.
Cc1ccc(NC2C(=O)NC(=O)NC2=O)cc1 as listed: Nrf2 ARE act: 1%; GALK inhibitor: x; PI4K2A block: -59*; miR-21 reporter: x; Nrf2 inh: -1%; A549 viability: 4%
O=C1C(Cl)=C(N2CCC(C(=O)O)CC2)C(=O)c2ccccc21 as listed: Nrf2 ARE act: u; GALK inhibitor: u; PI4K2A block: -15; miR-21 reporter: 1%; Nrf2 inh: -9%; A549 viability: -13%

Remaining list, next part
Each structure is followed by: Nrf2 ARE act | GALK inhibitor | PI4K2A block | miR-21 reporter | Nrf2 inh | A549 viability
> CN(C)c1ccc(C=c2c3ccccc3n3c2cc(-c2ccccc2)[n+]3C)cc1
    0% | x | u | x | 5.8µM* | 16µM*
> CN(C)c1ccc(C=c2c3ccccc3n3c2c2c([n+]3C)CCCC2)cc1
    -3% | x | -16 | x | 6.5µM* | 21µM*
> CN(C)c1ccc(C=c2c3cc([N+](=O)[O-])ccc3n3c2cc(-c2ccccc2)[n+]3C)cc1
    -4% | x | -51* | x | 8.2µM* | u
> COc1cc(N(C)C)ccc1C=c1c2ccccc2n2c1cc(-c1ccccc1)[n+]2C
    6% | x | u | x | 15µM* | u

Looked up above.
Entry for CN(C)c1ccc(C=c2c3cc([N+](=O)[O-])ccc3n3c2cc(-c2ccccc2)[n+]3C)cc1 in PI4K2A block: -51*
Entry for CN(C)c1ccc(C=c2c3ccccc3n3c2c2c([n+]3C)CCCC2)cc1 in A549 viability: 21µM*
Entry for CN(C)c1ccc(C=c2c3ccccc3n3c2cc(-c2ccccc2)[n+]3C)cc1 in Nrf2 ARE act: 0%
